Measurements: ChEMBL document CHEMBL2163313, “Shape-based reprofiling of FDA-approved drugs for the H₁ histamine receptor” (J Med Chem, 2012)

Sequences of proteins named here, by UniProt entry; tags and fusion partners are left off.
UniProt P31390, whole entry: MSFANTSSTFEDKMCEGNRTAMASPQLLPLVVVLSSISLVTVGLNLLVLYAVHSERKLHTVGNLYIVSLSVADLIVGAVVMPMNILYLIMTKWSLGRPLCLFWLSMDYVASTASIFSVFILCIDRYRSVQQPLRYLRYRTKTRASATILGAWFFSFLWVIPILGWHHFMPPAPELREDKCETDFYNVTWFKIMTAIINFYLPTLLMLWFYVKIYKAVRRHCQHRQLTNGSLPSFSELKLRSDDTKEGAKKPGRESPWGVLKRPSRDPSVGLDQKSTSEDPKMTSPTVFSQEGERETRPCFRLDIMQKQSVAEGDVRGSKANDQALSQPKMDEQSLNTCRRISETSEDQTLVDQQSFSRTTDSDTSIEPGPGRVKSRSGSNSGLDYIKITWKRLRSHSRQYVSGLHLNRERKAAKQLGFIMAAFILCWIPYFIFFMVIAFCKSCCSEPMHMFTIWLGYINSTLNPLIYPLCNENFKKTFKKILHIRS

Biological target: Histamine H1 receptor (Rattus norvegicus, UniProt P31390)
Assay type: cell membranes, Sprague-Dawley, Brain, Membrane

| Compound | IC50 |
| --- | --- |
| Cc1ccccc1C(OCCN(C)C)c1ccccc1 (stereo not drawn) [ORPHENADRINE] | 162 nM |
| CN(C)CCCN1c2ccccc2Sc2ccccc21 [PROMAZINE] | 1260 nM |
| COc1ccc(CN(CCN(C)C)c2ccccn2)cc1 [PYRILAMINE] | 5.75 nM |
